Test results from paper PMC12163822, “Synthesis and Pharmacological Characterization of a Novel Cannabinoid Receptor 1 Antagonist” (ACS Omega, 2025).

Protein sequences, listed by entry. Tags and fused reporters are not part of them.
UniProt P20272, whole entry: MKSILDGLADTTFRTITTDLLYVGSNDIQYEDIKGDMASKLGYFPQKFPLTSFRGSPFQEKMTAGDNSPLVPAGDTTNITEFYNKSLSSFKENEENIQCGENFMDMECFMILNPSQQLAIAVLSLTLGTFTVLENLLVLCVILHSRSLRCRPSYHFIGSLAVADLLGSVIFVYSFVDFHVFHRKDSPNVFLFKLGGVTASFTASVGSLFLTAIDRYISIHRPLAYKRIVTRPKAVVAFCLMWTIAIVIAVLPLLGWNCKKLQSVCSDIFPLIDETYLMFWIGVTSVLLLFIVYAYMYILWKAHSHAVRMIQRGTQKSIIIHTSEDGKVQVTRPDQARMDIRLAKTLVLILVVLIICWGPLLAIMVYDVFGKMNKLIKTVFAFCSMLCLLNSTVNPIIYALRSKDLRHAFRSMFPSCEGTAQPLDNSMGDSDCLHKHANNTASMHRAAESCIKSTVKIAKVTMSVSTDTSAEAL
UniProt P47746, whole entry: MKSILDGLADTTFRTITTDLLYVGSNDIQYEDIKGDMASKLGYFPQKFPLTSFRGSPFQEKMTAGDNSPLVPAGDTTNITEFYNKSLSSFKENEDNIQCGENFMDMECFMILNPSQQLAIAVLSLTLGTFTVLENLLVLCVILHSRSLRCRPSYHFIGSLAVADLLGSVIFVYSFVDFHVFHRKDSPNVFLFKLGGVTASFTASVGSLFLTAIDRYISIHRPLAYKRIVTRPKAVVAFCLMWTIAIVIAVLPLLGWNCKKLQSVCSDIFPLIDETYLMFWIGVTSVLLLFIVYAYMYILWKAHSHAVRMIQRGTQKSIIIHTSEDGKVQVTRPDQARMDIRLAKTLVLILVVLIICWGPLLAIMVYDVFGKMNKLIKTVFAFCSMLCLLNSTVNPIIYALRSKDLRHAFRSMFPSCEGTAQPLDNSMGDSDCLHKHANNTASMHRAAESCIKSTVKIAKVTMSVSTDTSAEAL

Key:
CB1 receptor [1] = target: CB1 receptor (Rattus norvegicus, UniProt P20272); experiment: Functional [35S]GTPγS autoradiography in rat brain slices; assay type: biochemical, Sprague-Dawley rat; set-up: fresh frozen sections from brain samples from wild-type; from tissue; host or cells: Sprague-Dawley rat brain sections; conditions: compound alone 10 µM
Protocol: (§1) To perform functional autoradiography of cannabinoid receptors, fresh frozen sections from brain samples from wild-type Sprague–Dawley rats (n = 5) and Swiss mice (n = 5) were used to test the newly synthesized compound which had shown the best affinity for cannabinoid receptors.
(§2) All brain sections were air-dried for 30 min and then immersed in Coplin jars for preincubation (4 times, 15 min each time) in an HEPES-based buffer (50 mM HEPES, 100 mM NaCl, 3 mM MgCl2, 0.2 mM EGTA, 0.5% BSA; pH 7.4) at 30 °C. The objective of this preincubation was the removal of endogenous ligands. Slices were then incubated for 2 h at 30 °C in the same buffer supplemented with 2 mM GDP, 1 mM DTT, and 0.04 nM [^35S]-GTPγS and the target compound (10 μM) alone, as well as the target compound and CP55,940 (10 μM) together. Basal [^35S]-GTPγS binding was defined in the absence of the agonists in two consecutive slices. To define nonspecific binding, 10 μM of unlabeled GTPγS was added to the incubation in another section. Following incubation, slices were twice washed in an ice-cold 50 mM HEPES buffer (pH 7.4), dried, and exposed for 48 h to β-radiation sensitive film with a set of [^14C] standards calibrated for [^35S]. Calibrated films were scanned and quantified using Fiji software (Fiji, Bethesda, […], USA). The signal corresponding to nonspecific binding was previously subtracted from the basal and agonist-stimulated binding. Then, the data was expressed as the percentage of stimulation over basal following the formula: ([^35S]-GTPγS agonist-stimulated binding) × 100/([^35S]-GTPγS basal binding)-100.

CB1 receptor [2] = target: T1, CB1 receptor (Mus musculus, UniProt P47746); experiment: Functional [35S]GTPγS autoradiography in mouse brain slices; assay type: biochemical, Swiss mice; conditions: compound alone 10 µM
T1 construct: fresh frozen sections from brain samples from wild-type; from tissue; host or cells: Swiss mouse brain sections
Protocol: as §1, §2

[3] = nucleus basalis magnocellularis

Substance: (−)-cis-3-[2-Hydroxy-4-(1,1-dimethylheptyl)phenyl]-trans-4-(3-hydroxypropyl) cyclohexanol [CP55,940, reference compound]
- [35S]GTPγS binding, Stimulation (% over basal) (CB1 receptor [1]; amygdala): 49 ± 12 % over basal
- [35S]GTPγS binding, Stimulation (% over basal) (CB1 receptor [1]; cerebellum (gray matter)): 68 ± 77 % over basal
- [35S]GTPγS binding, Stimulation (% over basal) (CB1 receptor [1]; cortex): 40 ± 25 % over basal
- [35S]GTPγS binding, Stimulation (% over basal) (CB1 receptor [1]; globus pallidus): 833 ± 352 % over basal
- [35S]GTPγS binding, Stimulation (% over basal) (CB1 receptor [1]; hippocampus dorsal): 31 ± 9 % over basal
- [35S]GTPγS binding, Stimulation (% over basal) (CB1 receptor [1]; [3]): 164 ± 35 % over basal
- [35S]GTPγS binding, Stimulation (% over basal) (CB1 receptor [1]; striatum): 83 ± 81 % over basal
- [35S]GTPγS binding, Stimulation (% over basal) (CB1 receptor [1]; substantia nigra): 314 ± 222 % over basal
- [35S]GTPγS binding, Stimulation (% over basal) (CB1 receptor [2]; amygdala): 88 ± 60 % over basal
- [35S]GTPγS binding, Stimulation (% over basal) (CB1 receptor [2]; cerebellum (gray matter)): 128 ± 59 % over basal
- [35S]GTPγS binding, Stimulation (% over basal) (CB1 receptor [2]; cortex): 40 ± 31 % over basal
- [35S]GTPγS binding, Stimulation (% over basal) (CB1 receptor [2]; globus pallidus): 412 ± 189 % over basal
- [35S]GTPγS binding, Stimulation (% over basal) (CB1 receptor [2]; hippocampus dorsal): 77 ± 23 % over basal
- [35S]GTPγS binding, Stimulation (% over basal) (CB1 receptor [2]; [3]): 91 ± 68 % over basal
- [35S]GTPγS binding, Stimulation (% over basal) (CB1 receptor [2]; striatum): 56 ± 36 % over basal
- [35S]GTPγS binding, Stimulation (% over basal) (CB1 receptor [2]; substantia nigra): 747 ± 164 % over basal
